Results reported in ChEMBL document CHEMBL1671644, “Inhibition of human immunodeficiency virus type 1 infection by the candidate microbicide dapivirine, a nonnucleoside reverse transcriptase inhibitor” (Antimicrob Agents Chemother, 2009).

Test system: Human immunodeficiency virus 1
Assay: Antiviral activity against HIV-1 subtype CRF01_AE V022820 infected in human MT4 cells assessed as inhibition of viral replication relative to HIV-1 3B
Type: functional
Outline: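 MT-4 cells (3 x 10^4/well) infected with site-directed mutants or recombinant clinical isolates (200 TCID50/well) with drug, cultured 3 to 5 days. Viability read by MTT colorimetric antivirogram assay. IC50 by nonlinear regression; fold change = IC50 for the test isolate / IC50 for wild-type HIV-1 IIIB tested in parallel (mean or median).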

## CC(C)Nc1cccnc1N1CCN(C(=O)c2cc3cc(NS(C)(=O)=O)ccc3[nH]2)CC1 [DELAVIRDINE]
  Ratio IC50: 3.3
